The values below are quoted from earlier work in patent US6641838B2, “Effervescent drug delivery system for oral administration” (Cima Labs Inc., priority 1998, dated 2003).

For this data set the following is noted: in vivo, po.

Regarding Methyldopa, the “range of bioavailability (inter- and intrasubject variability)” value is recorded as 8-62%.
